# Source: PubChem BioAssay AID1256 (The Scripps Research Institute Molecular Screening Center, 2008)
# By UniProt entry, the sequences of proteins in these tests, tags left out.
# UniProt P25929, whole entry, looked up: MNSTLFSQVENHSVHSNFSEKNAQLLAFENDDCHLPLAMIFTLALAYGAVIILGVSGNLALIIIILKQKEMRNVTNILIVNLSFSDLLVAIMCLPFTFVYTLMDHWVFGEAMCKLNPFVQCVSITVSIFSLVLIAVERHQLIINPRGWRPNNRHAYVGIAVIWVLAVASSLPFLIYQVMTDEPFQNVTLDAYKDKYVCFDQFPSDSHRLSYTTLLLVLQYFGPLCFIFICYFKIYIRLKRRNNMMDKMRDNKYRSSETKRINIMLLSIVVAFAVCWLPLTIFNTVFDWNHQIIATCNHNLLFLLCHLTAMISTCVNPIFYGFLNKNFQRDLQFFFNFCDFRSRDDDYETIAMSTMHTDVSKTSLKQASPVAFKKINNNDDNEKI
# This is a selection; strong and weak results do not stand in their true shares. The source made the active and inactive calls. Rule as the data show it: active = inhibition above about 20%; inactive = the rest.
# Target: Neuropeptide Y receptor type 1 (Homo sapiens) (UniProt P25929)
# Test: NPY-Y1 receptor antagonists, selectivity check, counter-screen for NPY-Y2 antagonist project, cell-based (AID 1256);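 also: cells challenged with NPY then isoproterenol with cAMP sensed through a CNG channel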
# Conditions: cell-based NPY-Y1 antagonism counterscreen; at 3.6 µM; hits give high values
smiles,measurement,value
CCc1nc2c(n1)c1c(non1O)c1c2no[n+]1[O-],inhibition,active: 22.7%
